The values below are quoted from earlier work in US9345700B2, “Compositions and methods useful for treating diseases” (Eutropics Pharmaceuticals, Inc., priority 2011, dated 2016).

Chains of the proteins cited; added tags and fusions are not shown.
UniProt P10415, whole entry, species assumed: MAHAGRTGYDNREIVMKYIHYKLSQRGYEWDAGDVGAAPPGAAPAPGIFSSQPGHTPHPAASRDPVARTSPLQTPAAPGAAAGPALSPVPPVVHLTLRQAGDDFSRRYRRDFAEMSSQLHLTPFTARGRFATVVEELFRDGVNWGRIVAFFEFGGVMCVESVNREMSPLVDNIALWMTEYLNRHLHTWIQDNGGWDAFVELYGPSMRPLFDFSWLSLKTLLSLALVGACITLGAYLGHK
UniProt Q07820, whole entry, species assumed: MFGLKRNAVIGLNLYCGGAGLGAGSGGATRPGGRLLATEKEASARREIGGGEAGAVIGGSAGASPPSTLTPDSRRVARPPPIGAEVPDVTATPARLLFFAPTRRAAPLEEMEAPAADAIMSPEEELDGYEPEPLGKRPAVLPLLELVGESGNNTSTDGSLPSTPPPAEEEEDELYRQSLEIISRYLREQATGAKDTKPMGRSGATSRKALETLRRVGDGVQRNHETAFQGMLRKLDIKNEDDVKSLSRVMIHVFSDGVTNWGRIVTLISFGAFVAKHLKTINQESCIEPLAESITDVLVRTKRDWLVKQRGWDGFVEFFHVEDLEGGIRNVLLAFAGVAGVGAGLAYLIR

pIC50: −log10 of the molar value.

The target of one data set is Bcl-2 (Homo sapiens (Human), UniProt P10415). The note with it: read-out: IC50 versus Bcl-2; cited from earlier work.
A further data set deals with Mcl-1 (Homo sapiens (Human), UniProt Q07820). The note with it: cited from earlier work.

One may read the pIC50 as the negative decadic logarithm of the IC50, by convention in mol/L. Take `CC1(C)CCC(c2ccc(Cl)cc2)=C(CN2CCN(c3ccc(C(=O)NS(=O)(=O)c4ccc(N[C@H](CCN5CCOCC5)CSc5ccccc5)c(S(=O)(=O)C(F)(F)F)c4)cc3)CC2)C1` [ABT-263]: the negative logarithm of the IC50 (pIC50) on Bcl-2 was > 8.00.
For the compound `CN(C)CC[C@H](CSc1ccccc1)Nc1ccc(S(=O)(=O)NC(=O)c2ccc(N3CCN(Cc4ccccc4-c4ccc(Cl)cc4)CC3)cc2)cc1[N+](=O)[O-]` [ABT-737], the pIC50 at Mcl-1 is > 6.30.
